Literature values in paper PMC10005301, “Prediction of the n-Octanol/Water Partition Coefficients of Basic Compounds Using Multi-Parameter QSRR Models Based on IS-RPLC Retention Behavior in a Wide pH Range” (Molecules, 2023).

Set-up: method as in UFZ-LSER database
Details: hydrogen bonding parameter B; ref UFZ-LSER database; cited from earlier work

SMILES: Cc1cccc(N)n1 [2-Amino-6-methylpyridine]
- B: 0.93
